This passage reports EC50 results from publication PMC8691691 (ACS Chemical Neuroscience, 2021).

Substitutions are numbered along the chain they refer to.

For orientation: EC50 means the concentration at which the effect is half-maximal.

One assay deals with T1, GlyT2 I292C mutant (Rattus norvegicus, UniProt P58295, I292C).
T1 construct: expressed in transfected cells; host or cells: COS7
T1 sequence (P58295 1-799 I292C): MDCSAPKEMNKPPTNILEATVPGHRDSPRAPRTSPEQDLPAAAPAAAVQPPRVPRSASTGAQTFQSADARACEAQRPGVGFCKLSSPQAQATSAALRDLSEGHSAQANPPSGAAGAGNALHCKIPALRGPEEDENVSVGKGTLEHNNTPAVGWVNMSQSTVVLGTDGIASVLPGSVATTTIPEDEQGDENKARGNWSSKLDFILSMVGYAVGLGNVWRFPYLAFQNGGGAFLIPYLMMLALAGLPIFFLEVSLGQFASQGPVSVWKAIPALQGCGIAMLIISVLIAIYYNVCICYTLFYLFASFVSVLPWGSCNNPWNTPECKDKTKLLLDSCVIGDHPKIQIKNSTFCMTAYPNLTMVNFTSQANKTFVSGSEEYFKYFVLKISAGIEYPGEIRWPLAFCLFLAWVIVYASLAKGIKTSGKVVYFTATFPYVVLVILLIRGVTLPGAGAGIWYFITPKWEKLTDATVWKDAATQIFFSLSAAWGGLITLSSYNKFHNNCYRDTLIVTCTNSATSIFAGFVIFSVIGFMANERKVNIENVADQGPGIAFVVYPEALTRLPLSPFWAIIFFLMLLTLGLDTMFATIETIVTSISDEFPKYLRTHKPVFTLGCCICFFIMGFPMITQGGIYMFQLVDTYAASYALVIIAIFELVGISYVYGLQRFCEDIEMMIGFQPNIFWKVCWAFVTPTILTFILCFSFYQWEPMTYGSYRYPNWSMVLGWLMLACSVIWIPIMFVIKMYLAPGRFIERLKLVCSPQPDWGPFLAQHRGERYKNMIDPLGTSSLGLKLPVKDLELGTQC
In words: [3H]glycine transport by GlyT2 mutant in COS7 cells. It is filed as cell-based. From the text:
(§1) To validate the predicted interactions between the inhibitors and GlyT2, we used systematic site-directed mutagenesis to construct substitution mutants of the potential residues involved in ligand binding. […] The GlyT2 residues predicted to interact with the inhibitors through its side chain were replaced by amino acids expected to force the loss of the interaction. In the cases where the interaction occurred through the backbone, the inserted amino acid sought to alter the disposition of the substituted residue to lose the coordination. […] Most of the mutants were active, although depicted lower activity as compared to the wild-type. […] These two residues are preserved throughout the NSS family, and Tyr-289 has proven to have an important structural role in stabilizing the unwound portion of the TM1 helix, whereas Tyr-209 has a key role in S1 site formation through its interaction with Ser-481.[25],[30],[33] Other residues such as Leu-213 or Ser-479 are involved in the formation of the glycine-binding site and Na^+-binding site, respectively.
(§2) Substitution mutants were generated with the QuikChange II Site-Directed Mutagenesis kit (Agilent Technologies, Santa Clara, CA, USA), using rGlyT2 or rGlyT1 subcloned in pCDNA3.[47] The complete coding region of all of the constructs was sequenced to verify that only the desired mutation had been introduced. Plasmids from two independent Escherichia coli colonies were expressed in eukaryotic cells as indicated below, and [^3H]glycine transport and/or immunodetection was performed for verification. COS7 cells were grown and transfected using Turbofect Transfection Reagent (Thermo Fisher Scientific, Waltham, MA, USA), following the manufacturer’s protocol (2 μL reagent/μg of DNA). Cells were incubated for 48 h at 37 °C until used.
(§3) COS7 cells were washed and incubated at 37 °C in HEPES-buffered saline (HBS, in mM: 150 NaCl, 10 HEPES-Tris, pH 7.4, 1 CaCl2, 5 KCl, 1 MgSO4, 10 glucose) containing 2 μCi/mL [2-^3H]glycine (1.6 TBq/mmol; PerkinElmer Life Sciences), at 10 μM final glycine concentration if not otherwise stated.[48] At the end of the desired time (usually 10 min), reactions were washed and terminated by aspiration. Protein concentration (Bradford) and [2-^3H]glycine levels (liquid scintillation, LKB 1219 Rackbeta) were determined. Glycine accumulation measured in mock-transfected cells was subtracted from that of the transporter-transfected cells and normalized by the protein concentration. Kinetic analyses were performed by varying glycine concentration in the uptake medium between 0.5 and 500 μM. […] The determinations of the IC50 were performed initially by diluting compounds by log steps with the vehicle from 1 nM to 1 μM. Then, exact IC50 values were determined by means of 8-point concentration curves performed over a suitable range using half log dilutions with the vehicle. A nonlinear curve fitting method was used to obtain IC50 values using Graphpad Prism software, version 6.0, Graphpad, San Diego, CA, USA.

Another assay concerns the target T2, GlyT2 T584L mutant (Rattus norvegicus, UniProt P58295, T584L).
T2 construct: expressed in transfected cells; host or cells: COS7
T2 sequence (P58295 1-799 T584L): T1 sequence (P58295 1-799 I292C) with C292I, T584L
The assay is described as above. It is filed as cell-based.
Source text: as §1, §2, §3

`NCC(=O)O` [Gly, glycine]: the EC50 on GlyT2 I292C mutant came to 176 ± 15 µM; at GlyT2 T584L mutant, 1200 ± 189 µM.
